This note sets out measurements from article PMC10855908 (International Journal of Molecular Sciences, 2024).

Structures are written as SMILES. Values after ≈ are worked out from the molar mass of the structure shown.

In test [1] the test system is Micrococcus luteus ATCC10240. In words: MIC microtitration assay. The test is classed as cell-based.
In a further test the test system is M. luteus ATCC10240. In words: Agar well diffusion. The settings on record: Mueller–Hinton soft agar, 80 μL of enterocin at 200 μg/mL, 24 h 37 °C, dash = not active. The test is classed as cell-based, Micrococcus luteus.

In the case of `CC[C@H](C)[C@H](NC(=O)[C@H](Cc1c[nH]cn1)NC(=O)[C@H](CCCCN)NC(=O)[C@H](CCCCN)NC(=O)[C@@H](NC(=O)[C@H](Cc1c[nH]c2ccccc12)NC(=O)[C@H](CCC(=O)O)NC(=O)[C@@H](NC(=O)[C@@H](NC(=O)[C@H](CCCCN)NC(=O)[C@H](CC(N)=O)NC(=O)[C@@H](NC(=O)[C@H](C)NC(=O)[C@H](Cc1c[nH]c2ccccc12)NC(=O)CNC(=O)[C@H](CCC(=O)O)NC(=O)CNC(=O)[C@@H](NC(=O)[C@H](Cc1ccccc1)NC(=O)[C@H](CCC(N)=O)NC(=O)[C@H](CCSC)NC(=O)[C@@H](NC(=O)[C@H](CCC(N)=O)NC(=O)[C@H](CCCCN)NC(=O)[C@H](Cc1ccc(O)cc1)NC(=O)[C@H](Cc1ccc(O)cc1)NC(=O)[C@H](CCCCN)NC(=O)[C@H](CCCCN)NC(=O)[C@@H](NC(=O)[C@@H](NC(=O)[C@@H]1CCCN1C(=O)[C@H](Cc1c[nH]c2ccccc12)NC(=O)CNC(=O)[C@H](Cc1ccccc1)NC(=O)[C@H](CCCCN)NC(=O)[C@H](C)NC(=O)[C@@H](NC(=O)[C@H](CC(C)C)NC(=O)[C@H](CCCCN)NC(=O)[C@H](C)NC(=O)[C@@H](NC(=O)[C@H](C)NC(=O)CNC(=O)[C@@H](N)CCSC)[C@@H](C)CC)C(C)C)[C@@H](C)CC)C(C)C)[C@@H](C)CC)[C@@H](C)CC)[C@@H](C)CC)[C@@H](C)CC)[C@@H](C)CC)[C@@H](C)CC)C(=O)O` [Enterocin L50A], the MIC in test [1] amounted to 1.56 µg/mL (≈ 0.301 µM). In the test on M. luteus ATCC10240, this molecule came in with an Inhibition halos of 20 mm.
